Experimental data published in patent publication US4022891A (priority 1974, dated 1977).

Assays:
Mouse = settings: from Table 6; in words
Protocol: The toxicity of each of the above two compounds was tested by a well known method.

bone absorption = assay: Bone absorption effect: increase in serum 45Ca radioactivity in 45Ca-labelled rats, continuous oral dosing (Example 31, FIG. 6); format: in vivo, Male wistar rats; settings: on the eighth day
Source text: Male wistar rats (each with a body weight of about 150 g) were subcutaneously administered with an aqueous solution of ^45 CaCl2 in a dose of 50 μCi per rat, and kept for 6 weeks. ^45 Ca so administered was rapidly absorbed, and a greater portion of it gathered at the bones in several hours. Three weeks later, the ^45 Ca level in blood became constant, and only the bones were in the specifically labelled state. This was confirmed by a macroautoradiographic analysis of the whole body. […] Blood was taken out with the passage of time, and the serum radioactivity level was measured by the method described in Example 29 (a). An increase in the serum radioactivity level was made an index of the effect of bone absorption. The control group was administered with corn oil alone. The number of rats tested was 4 in each group. In this figure, the symbol * indicates a significant difference in serum radioactivity level from the control.

C=C1/C(=C\C=C2/CCC[C@]3(C)[C@@H]([C@H](C)CCC(O)C(C)C)CC[C@@H]23)C[C@@H](O)C[C@@H]1O (stereo partly drawn) [1α,24-DHCC, 1α,24-dihydroxycholecalciferol]
toxicity relative to 1α-HCC (Mouse): one-tenth or less of that of 1α-HCC
degree of increase of bone absorption relative to 1α-HCC (bone absorption): about 1/3
